The text below walks through data of US7217808B2, “RFRP-3 and DNA thereof” (Takeda Pharmaceutical Company, Ltd., priority 2001, dated 2007).

Protein sequences, listed by entry. Tags and fused reporters are not part of them. Lines headed by an entry give the natural chain unless they say otherwise; changes in a name come on top.
UniProt Q9GZQ6: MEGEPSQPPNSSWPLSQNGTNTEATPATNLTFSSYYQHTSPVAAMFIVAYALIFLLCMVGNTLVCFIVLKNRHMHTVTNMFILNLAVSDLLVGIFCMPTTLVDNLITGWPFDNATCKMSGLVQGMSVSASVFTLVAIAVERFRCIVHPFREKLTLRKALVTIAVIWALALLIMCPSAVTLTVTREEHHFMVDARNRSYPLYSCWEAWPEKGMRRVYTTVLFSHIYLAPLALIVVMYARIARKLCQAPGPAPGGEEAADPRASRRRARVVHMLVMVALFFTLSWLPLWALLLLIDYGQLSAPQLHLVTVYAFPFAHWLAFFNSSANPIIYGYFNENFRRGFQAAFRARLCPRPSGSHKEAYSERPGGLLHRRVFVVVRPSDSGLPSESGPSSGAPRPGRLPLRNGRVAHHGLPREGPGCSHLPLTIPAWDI

This test deals with T1, Human OT7T022 receptor (Homo sapiens, UniProt Q9GZQ6).
T1 construct: expressed in transfected cells; host or cells: CHO cells
In words: Agonist activity: inhibition of forskolin-induced intracellular cAMP increase in human OT7T022 receptor-expressing CHO cells. It is filed as cell-based. Conditions: 1 μM forskolin, 30 min, read-out: ED50, inhibition of intracellular cAMP increase by forskolin treatment. As for the experimental part:
Human OT7T022 receptor-expressing CHO cells prepared based on the procedures described in WO 00/29441 were plated in 24-well plates at 3×10^5 cells/well and cultured overnight The cells were washed with Hanks' buffer (HBSS) supplemented with 0.05% BSA and 0.2 mM IBMX and then preincubated in the same buffer at 37° C. for 30 min. Then, the buffer was exchanged for HBSS supplemented with 0.05% BSA and 0.2 mM IBMX, this buffer supplemented with 1 μM forskolin alone, or this buffer supplemented with 1 μM forskolin and a peptide at a varied concentration, and the cells were incubated at 37° C. for 30 min. After the incubation, intracellular cAMP was extracted and determined for each well according to the protocol attached to the cAMP EIA Kit (Amersham). For each concentration of the peptides used, the ratio of inhibition of intracellular cAMP increase by forskolin treatment was calculated to thereby obtain the dose-reaction curves as shown in FIG. 14.

With `CC(C)C[C@H](NC(=O)[C@@H]1CCCN1C(=O)[C@@H](N)CC(C)C)C(=O)N[C@@H](CCCNC(=N)N)C(=O)N[C@@H](Cc1ccccc1)C(N)=O` [LPLRF amide, Leu-Pro-Leu-Arg-Phe-NH2], the EC50 was found to be 36 nM.
For `N=C(N)NCCC[C@H](NC(=O)[C@H](CCC(N)=O)NC(=O)[C@@H]1CCCN1)C(=O)N[C@@H](Cc1ccccc1)C(N)=O` [PQRF amide, Pro-Gln-Arg-Phe-NH2] the value was at least 1000 nM.
